# Ab-14 heavy chain CDR variants: yeast mating affinities

All variants were tested on one target, the spike HR2 peptide PDVDLGDISGINAS (SARS-CoV-2).

Each scFv is VH, the linker GGGGSGGGGSGGGGS, VL, as in the parent Ab-14, and differs from it in the CDRs of the heavy chain only.
VH: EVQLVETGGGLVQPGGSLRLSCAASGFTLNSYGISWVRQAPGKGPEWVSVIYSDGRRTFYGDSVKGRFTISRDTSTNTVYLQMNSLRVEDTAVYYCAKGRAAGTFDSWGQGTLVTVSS
VL: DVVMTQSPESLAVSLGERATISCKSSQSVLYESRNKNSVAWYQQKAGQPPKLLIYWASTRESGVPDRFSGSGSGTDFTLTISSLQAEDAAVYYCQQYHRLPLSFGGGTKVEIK

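The parent was found by panning a naive human phage display library on the peptide. Library AAYL49 holds single substitutions and randomly drawn double and triple substitutions in the CDRs. The assay is AlphaSeq: two haploid yeast populations carry antibody and antigen on their surface. Pairs that bind mate more often; barcode pairs of the diploids are counted by sequencing. Read counts were normalised to the haploid input and turned into Kd by a linear fit to BCL2-family pairs of known affinity, for each replicate. Each pool was mated in three replicate cultures.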

Each variant is given by its three heavy chain CDRs, as the data file delimits them; those of the parent are GFTLNSYGIS, VIYSDGRRTFYGDSVK, GRAAGTFDS. Values are log10 of the apparent Kd in nM; lower means stronger binding. Replicates are averaged; those with no signal do not enter the mean. A pair that was not seen in that replicate is written "ND"; this usually means weak binding, but a binder can also be missed. Background: pairings of library AAYL49 with three empty control strains gave a value in 15% of cases (median 4.06, 5th percentile 2.83). Values in that range, when seen in few replicates, are hard to tell from nonspecific mating. The control count says in how many pairings with the empty strains this scFv gave a signal, with their mean in brackets.

CDR-H1,CDR-H2,CDR-H3,log10 Kd (nM) by replicate,"log10 Kd (nM), mean",signal with controls
GFTLNSYGIS,FIYSDGRRTFYGDSVK,GRAAGTFDS,ND / ND / ND,ND,1/9 (2.92)
SFTLNSKGDS,VIYSDGRRTFYGDSVK,GRAAGTFDS,ND / 4.85 / ND,4.85,2/9 (3.10)
GFTLNSYGIS,VIYSDGRRTMYGDSVK,GRAAGTFDS,1.75 / 1.52 / 1.86,1.71,4/9 (3.70)
GFILNSYGIS,VIYSDGRRTFYGDSVK,KRAAGTEDS,2.16 / 1.70 / 2.58,2.15,2/9 (4.59)
GFTLNSYGIS,VIYSDYRRYFYGDSVK,GYAAGTFDS,ND / ND / ND,ND,1/9 (3.95)
GFTLNSYGIS,VIYSDHRRTFYGDSRK,GVAAGTFDS,ND / ND / 4.54,4.54,1/9 (3.73)
GWTCNSYGIS,VIYSDGRRTFYGDSVK,GRAAGTFDT,ND / ND / ND,ND,0/9
GFTLNSYGIS,VKYSDGRRTFYGDSVK,GREAHTFDS,ND / ND / ND,ND,2/9 (4.44)
GFTLLSYGIS,VIYSDGRRTFYSDSVK,GKAAGTFDS,0.34 / 0.80 / 0.56,0.57,2/9 (3.65)
GFTLNSYGIS,VIYSNGRRTFYGDSVK,PRAAGTFDS,ND / 3.87 / ND,3.87,3/9 (4.15)
GFTLNSYGID,VIYGDGRRTFYGDSVK,GRAAGTFKS,ND / ND / ND,ND,0/9
GFTVNSTGIS,VIYSDGRRTFAGDSVK,GRAAGTFDS,ND / ND / ND,ND,3/9 (4.23)
VFTLNSYGIS,VIYSDGRTTFYGDSEK,GRAAGTFDS,ND / ND / ND,ND,0/9
GFTLNSYGSS,VIASDGRRTFYGDSVK,GRAAGTFDS,3.34 / 4.12 / ND,3.73,1/9 (4.10)
GFTLNSYGIS,VIYSDGRRTFYGDSVK,GIAAGSIDS,ND / ND / ND,ND,0/9
GFTLNSYGIS,VIPSDGRRTFYGDSVK,VRAAYTFDS,ND / ND / ND,ND,0/9
GFTLNSGGIH,VIYSDFRRTFYGDSVK,GRAAGTFDS,ND / ND / ND,ND,3/9 (3.46)
GFTLNSYGIS,VIYRDGRRTCYGDGVK,GRAAGTFDS,ND / ND / ND,ND,1/9 (2.88)
GFGLNSYGIS,VIYSDGIRSFYGDSVK,GRAAGTFDS,ND / ND / ND,ND,0/9
GFTLNSYGVL,VIYTDGRRTFYGDSVK,GRAAGTFDS,ND / 3.02 / ND,3.02,1/9 (3.04)
GFTLNSYGNS,VIYSDGRRTFYGDAVT,GRAAGTFDS,ND / ND / ND,ND,1/9 (3.77)
GFTLNSYGIS,VIYSDGRTTFYGDSVK,GRAIMTFDS,ND / 2.53 / ND,2.53,0/9
GFTLNSYGIS,VIHSDDRRTEYGDSVK,GRAAGTFDS,ND / ND / ND,ND,0/9
GFTLNSYGIS,VIFSDGRRTFYGDQVK,GEAAGTFDS,1.34 / 1.36 / 1.45,1.38,2/9 (4.22)
GFDLNSYGIS,VIWSDGRRTFYGDSVK,GRAAGTFDH,1.99 / 1.87 / 2.31,2.06,2/9 (4.86)
GFTLNMYGIS,VIYSDGRRTFYHDSVK,GRAAGTFDS,0.22 / 0.58 / 0.52,0.44,3/9 (4.23)
GFTLNSYGIS,VIYSDGRRTFYGDSVK,YRVATTFDS,1.03 / 1.09 / 1.13,1.08,1/9 (3.60)
IFTLNSYGIS,VVYSDWRRTFYGDSVK,GRAAGTFDS,ND / ND / 4.08,4.08,3/9 (3.59)
GFTLNEYGIS,VIYSDGRRTFYGDSVN,GRAAGTFWS,ND / ND / ND,ND,1/9 (3.58)
RFTLNSYGIS,VMYSDGRRTFYGDSFK,GRAAGTFDS,2.53 / 2.17 / 3.61,2.77,3/9 (3.48)
GFTLNSYGIS,IIYSDGRRTFYGDSVK,TRAAGTFKS,3.07 / 2.59 / 3.15,2.94,7/9 (4.24)
GFTLNSYGIS,VIYSKGRRTFHGDSVK,GRAAGTFDS,ND / ND / 5.33,5.33,3/9 (3.90)
GFTLNSYGIW,VIYSDGRRTFYGDCVK,GRAAGTFDS,3.81 / ND / 5.61,4.71,2/9 (4.47)
GFTLNSYGIS,VIYSDGRRTFYRDPVK,GRAAGTFSS,ND / ND / ND,ND,2/9 (3.64)
GFTDNSYGIS,SIYSDGRRTFYGDSVK,GRAAGTKDS,ND / ND / 5.65,5.65,2/9 (4.00)
GFQLNSMGIV,VIYSDGRRTFYGDSVK,GRAAGTFDS,ND / ND / ND,ND,0/9
GFTLNSYGIS,VIYSDGRRTFFGDSVK,GRAAGTVDN,3.23 / 2.25 / 2.63,2.70,0/9
GFTTNSYGIR,VITSDGRRTFYGDSVK,GRAAGTFDS,ND / ND / ND,ND,0/9
FFTLNSYGIS,VIYSDKRITFYGDSVK,GRAAGTFDS,ND / ND / ND,ND,1/9 (3.01)
GFTLHSYGIS,VIYSDGRRTFYGDKVK,GRCAGTFDS,2.81 / 2.64 / ND,2.73,0/9

The first 3 entries again:

CDR-H1,CDR-H2,CDR-H3,log10 Kd (nM) by replicate,"log10 Kd (nM), mean",signal with controls
GFTLNSYGIS,FIYSDGRRTFYGDSVK,GRAAGTFDS,ND / ND / ND,ND,1/9 (2.92)
SFTLNSKGDS,VIYSDGRRTFYGDSVK,GRAAGTFDS,ND / 4.85 / ND,4.85,2/9 (3.10)
GFTLNSYGIS,VIYSDGRRTMYGDSVK,GRAAGTFDS,1.75 / 1.52 / 1.86,1.71,4/9 (3.70)

Data: MIT Lincoln Laboratory AlphaSeq set, Engelhart et al. 2022, doi:10.1038/s41597-022-01779-4, as distributed in FLAb.